2 compounds from patent US11053226B2, “KRAS G12C inhibitors and methods of using the same” (Amgen Inc., priority 2018, dated 2021) can be followed below.

Protein sequences, listed by entry. Tags and fused reporters are not part of them. Chains listed by the source or under a name are the forms on record and can include a tag or linker. Residues count along the entry.
UniProt P01116, 1-164 with tags or gaps C118A/G12C limits assumed: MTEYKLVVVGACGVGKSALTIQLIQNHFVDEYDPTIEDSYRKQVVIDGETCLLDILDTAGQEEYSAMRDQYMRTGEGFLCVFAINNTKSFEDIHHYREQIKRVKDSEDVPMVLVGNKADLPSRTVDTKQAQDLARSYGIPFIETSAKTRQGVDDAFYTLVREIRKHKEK

Read-outs that look alike come from different tables or passages of the source.

Assay [1] deals with GDP-bound KRAS protein (aa 1-169), containing both G12C and C118A amino acid substitutions (Homo sapiens (Human), UniProt P01116, C118A/G12C). Nature of the assay: Coupled Nucleotide Exchange Assay. The class given is biochemical.
The subject of assay [2] is Phosphorylation of ERK1/2 in A549 cells. The experiment in a line: Phospho-ERK1/2 MSD Assay (A549). The note with it: read-out: pERK IC50 (4 h, A549), 4 h compound treatment.
For assay [3], the system named is Phosphorylation of ERK1/2 in MIA PaCa-2 cells. The experiment in a line: Phospho-ERK1/2 MSD Assay. Type of assay: cell-based. The conditions noted are these: read-out: pERK IC50 (4 h, MiaPaCa-2); 4 h compound treatment; MiaPaCa-2 cells.

Turning to `C=CC(=O)N1CC(N2CCC(n3c(C4CC4)cc4cc(Cl)cc(C)c43)C2=O)C1` (centres unmarked), the IC50 in assay [1] (read-out: Coupled Exchange IC50) was determined as 34.7 µM.

Regarding `C=CC(=O)N1CC(NC(=O)Cn2c3ccccc3c3cc(Cl)ccc32)C1`, the IC50 in assay [2] is 61 µM; in assay [3] it was 13.9 µM; in assay [1] (read-out: Coupled Exchange IC50 (2 h), 2 h compound pre-incubation), 3.12 µM; in assay [1] (read-out: Coupled Exchange IC50 (20 h), 20 h compound pre-incubation), 0.63 µM.
